{"source": "patent US20130177598A1", "about": "“DISCRETE SIZE AND SHAPE SPECIFIC PHARMACEUTICAL ORGANIC NANOPARTICLES” (The University of North Carolina at Chapel Hill, priority 2007, published 2013)", "system": "anti-human albumin polyclonal antibody", "experiment": "ELISA assay of free albumin and albumin PRINT particles for biological function determination", "format": "binding", "details": "5-500 ng/mL; particles harvested directly using buffer; compared with free albumin", "description": "A standard ELISA assay was conducted on free albumin and albumin PRINT particles. […] Protein PRINT particles were harvested directly using buffer. In the case of human albumin free protein and protein PRINT particle, an anti-human albumin polyclonal antibody was used and the respective capture antibody in the ELISA."}
{"substance": "albumin PRINT particles: human albumin nanomolded by PRINT, harvested directly using buffer", "values": [{"measurement": "retention of biological structure and function after molding (ELISA)", "result": "retains biological structure and function"}]}
